These results are taken from ChEMBL document CHEMBL4616677, “Preclinical Lead Optimization of a 1,2,4-Triazole Based Tankyrase Inhibitor” (J Med Chem, 2020).

Sequences of proteins named here, by UniProt entry; tags and fusion partners are left off. A change or cut given only in a name is not applied to a line headed by its entry.
UniProt Q460N5, whole entry: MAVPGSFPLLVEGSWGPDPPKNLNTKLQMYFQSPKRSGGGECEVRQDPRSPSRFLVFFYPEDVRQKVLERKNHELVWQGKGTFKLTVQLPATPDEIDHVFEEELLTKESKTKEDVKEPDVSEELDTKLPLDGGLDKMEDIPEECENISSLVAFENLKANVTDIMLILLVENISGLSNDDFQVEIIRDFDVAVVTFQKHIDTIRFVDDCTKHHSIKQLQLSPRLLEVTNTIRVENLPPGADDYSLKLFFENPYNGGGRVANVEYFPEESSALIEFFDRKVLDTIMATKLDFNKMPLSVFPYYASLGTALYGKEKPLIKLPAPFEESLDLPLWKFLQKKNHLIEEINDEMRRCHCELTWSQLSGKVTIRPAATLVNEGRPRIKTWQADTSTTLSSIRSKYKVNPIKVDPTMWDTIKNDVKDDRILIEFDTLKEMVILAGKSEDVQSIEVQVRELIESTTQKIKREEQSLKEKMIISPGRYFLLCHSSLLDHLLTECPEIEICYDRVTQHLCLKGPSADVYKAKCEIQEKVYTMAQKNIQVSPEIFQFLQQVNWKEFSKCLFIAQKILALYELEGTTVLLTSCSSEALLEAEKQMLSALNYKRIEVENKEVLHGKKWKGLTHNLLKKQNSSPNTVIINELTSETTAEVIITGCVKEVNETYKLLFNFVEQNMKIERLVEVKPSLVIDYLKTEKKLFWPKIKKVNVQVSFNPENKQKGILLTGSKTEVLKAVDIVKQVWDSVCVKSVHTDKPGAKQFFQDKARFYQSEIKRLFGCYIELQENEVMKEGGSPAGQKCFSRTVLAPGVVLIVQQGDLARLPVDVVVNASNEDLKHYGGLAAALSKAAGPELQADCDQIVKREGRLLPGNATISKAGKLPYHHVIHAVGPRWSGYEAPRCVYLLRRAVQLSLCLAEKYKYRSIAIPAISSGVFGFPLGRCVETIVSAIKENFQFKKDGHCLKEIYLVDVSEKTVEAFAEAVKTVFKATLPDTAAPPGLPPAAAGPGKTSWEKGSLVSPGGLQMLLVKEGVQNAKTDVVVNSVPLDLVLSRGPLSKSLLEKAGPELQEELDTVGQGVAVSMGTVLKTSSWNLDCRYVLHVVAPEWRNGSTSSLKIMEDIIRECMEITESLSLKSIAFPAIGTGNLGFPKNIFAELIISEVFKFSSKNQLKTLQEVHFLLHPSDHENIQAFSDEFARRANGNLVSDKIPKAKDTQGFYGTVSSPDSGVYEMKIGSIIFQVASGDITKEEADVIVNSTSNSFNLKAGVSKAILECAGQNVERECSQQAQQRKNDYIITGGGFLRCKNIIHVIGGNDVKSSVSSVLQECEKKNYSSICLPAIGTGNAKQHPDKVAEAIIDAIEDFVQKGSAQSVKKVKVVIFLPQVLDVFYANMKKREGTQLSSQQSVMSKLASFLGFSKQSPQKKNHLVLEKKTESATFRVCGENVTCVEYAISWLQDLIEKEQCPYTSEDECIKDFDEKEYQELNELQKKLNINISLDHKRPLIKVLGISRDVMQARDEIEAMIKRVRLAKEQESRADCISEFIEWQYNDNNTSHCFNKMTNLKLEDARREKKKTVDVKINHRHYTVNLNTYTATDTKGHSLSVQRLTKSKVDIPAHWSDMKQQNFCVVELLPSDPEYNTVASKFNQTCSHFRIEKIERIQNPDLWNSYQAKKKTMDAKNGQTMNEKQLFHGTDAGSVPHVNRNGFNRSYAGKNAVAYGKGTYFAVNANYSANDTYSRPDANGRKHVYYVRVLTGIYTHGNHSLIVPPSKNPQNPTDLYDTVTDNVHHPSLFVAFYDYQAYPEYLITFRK
UniProt Q9UGN5: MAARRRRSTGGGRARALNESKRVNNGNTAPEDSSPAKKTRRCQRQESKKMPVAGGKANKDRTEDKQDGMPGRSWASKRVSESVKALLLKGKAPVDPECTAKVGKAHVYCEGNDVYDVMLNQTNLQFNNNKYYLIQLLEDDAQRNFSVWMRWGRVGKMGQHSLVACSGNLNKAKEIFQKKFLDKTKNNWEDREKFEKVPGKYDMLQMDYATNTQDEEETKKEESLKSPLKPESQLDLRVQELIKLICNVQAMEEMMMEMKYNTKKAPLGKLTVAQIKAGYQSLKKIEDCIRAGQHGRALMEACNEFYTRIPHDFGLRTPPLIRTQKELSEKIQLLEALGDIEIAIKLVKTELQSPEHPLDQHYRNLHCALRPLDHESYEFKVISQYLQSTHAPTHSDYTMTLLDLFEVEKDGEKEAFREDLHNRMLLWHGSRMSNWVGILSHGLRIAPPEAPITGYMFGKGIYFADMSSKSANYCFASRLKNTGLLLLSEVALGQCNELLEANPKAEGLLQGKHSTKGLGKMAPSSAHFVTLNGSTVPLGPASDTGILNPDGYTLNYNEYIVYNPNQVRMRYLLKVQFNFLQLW
UniProt P08684, whole entry: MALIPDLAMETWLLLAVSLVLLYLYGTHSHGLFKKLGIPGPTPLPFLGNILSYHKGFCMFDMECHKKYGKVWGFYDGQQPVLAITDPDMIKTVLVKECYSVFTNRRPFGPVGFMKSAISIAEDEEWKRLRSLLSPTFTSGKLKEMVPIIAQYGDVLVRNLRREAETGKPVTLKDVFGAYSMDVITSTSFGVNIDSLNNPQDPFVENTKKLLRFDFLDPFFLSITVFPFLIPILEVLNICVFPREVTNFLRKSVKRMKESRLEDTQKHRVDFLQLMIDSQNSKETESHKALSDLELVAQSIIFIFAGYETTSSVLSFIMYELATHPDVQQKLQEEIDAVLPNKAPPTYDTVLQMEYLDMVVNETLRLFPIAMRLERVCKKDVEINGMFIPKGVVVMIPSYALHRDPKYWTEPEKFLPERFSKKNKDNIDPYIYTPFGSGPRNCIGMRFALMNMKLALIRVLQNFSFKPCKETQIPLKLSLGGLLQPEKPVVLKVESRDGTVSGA
UniProt P09874, whole entry: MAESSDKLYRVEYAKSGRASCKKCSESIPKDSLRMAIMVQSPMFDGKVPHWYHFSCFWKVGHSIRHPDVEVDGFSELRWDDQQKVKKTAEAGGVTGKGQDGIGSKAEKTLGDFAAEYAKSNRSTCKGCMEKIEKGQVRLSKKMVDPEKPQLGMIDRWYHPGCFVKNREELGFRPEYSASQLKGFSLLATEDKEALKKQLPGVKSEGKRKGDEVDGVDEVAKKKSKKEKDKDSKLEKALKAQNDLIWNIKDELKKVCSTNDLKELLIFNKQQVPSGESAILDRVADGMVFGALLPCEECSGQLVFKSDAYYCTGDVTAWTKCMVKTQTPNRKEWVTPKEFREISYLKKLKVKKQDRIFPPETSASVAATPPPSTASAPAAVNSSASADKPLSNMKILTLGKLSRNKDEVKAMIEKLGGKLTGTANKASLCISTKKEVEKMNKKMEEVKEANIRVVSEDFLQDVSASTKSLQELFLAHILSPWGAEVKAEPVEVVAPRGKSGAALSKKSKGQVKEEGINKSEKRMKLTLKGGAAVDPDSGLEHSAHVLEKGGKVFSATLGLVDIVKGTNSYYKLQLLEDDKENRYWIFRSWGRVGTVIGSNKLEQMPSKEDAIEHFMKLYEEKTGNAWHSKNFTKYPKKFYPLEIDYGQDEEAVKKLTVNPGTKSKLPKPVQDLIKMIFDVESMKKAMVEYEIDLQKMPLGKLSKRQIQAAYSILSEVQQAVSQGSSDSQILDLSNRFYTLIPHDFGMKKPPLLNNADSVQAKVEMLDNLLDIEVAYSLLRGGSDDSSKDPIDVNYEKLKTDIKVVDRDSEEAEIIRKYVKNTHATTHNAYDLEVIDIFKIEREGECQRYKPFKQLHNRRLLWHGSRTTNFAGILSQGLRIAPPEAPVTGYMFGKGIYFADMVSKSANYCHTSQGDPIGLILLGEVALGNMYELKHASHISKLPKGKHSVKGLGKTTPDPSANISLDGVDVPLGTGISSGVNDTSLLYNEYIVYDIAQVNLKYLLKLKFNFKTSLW
UniProt Q9UKK3: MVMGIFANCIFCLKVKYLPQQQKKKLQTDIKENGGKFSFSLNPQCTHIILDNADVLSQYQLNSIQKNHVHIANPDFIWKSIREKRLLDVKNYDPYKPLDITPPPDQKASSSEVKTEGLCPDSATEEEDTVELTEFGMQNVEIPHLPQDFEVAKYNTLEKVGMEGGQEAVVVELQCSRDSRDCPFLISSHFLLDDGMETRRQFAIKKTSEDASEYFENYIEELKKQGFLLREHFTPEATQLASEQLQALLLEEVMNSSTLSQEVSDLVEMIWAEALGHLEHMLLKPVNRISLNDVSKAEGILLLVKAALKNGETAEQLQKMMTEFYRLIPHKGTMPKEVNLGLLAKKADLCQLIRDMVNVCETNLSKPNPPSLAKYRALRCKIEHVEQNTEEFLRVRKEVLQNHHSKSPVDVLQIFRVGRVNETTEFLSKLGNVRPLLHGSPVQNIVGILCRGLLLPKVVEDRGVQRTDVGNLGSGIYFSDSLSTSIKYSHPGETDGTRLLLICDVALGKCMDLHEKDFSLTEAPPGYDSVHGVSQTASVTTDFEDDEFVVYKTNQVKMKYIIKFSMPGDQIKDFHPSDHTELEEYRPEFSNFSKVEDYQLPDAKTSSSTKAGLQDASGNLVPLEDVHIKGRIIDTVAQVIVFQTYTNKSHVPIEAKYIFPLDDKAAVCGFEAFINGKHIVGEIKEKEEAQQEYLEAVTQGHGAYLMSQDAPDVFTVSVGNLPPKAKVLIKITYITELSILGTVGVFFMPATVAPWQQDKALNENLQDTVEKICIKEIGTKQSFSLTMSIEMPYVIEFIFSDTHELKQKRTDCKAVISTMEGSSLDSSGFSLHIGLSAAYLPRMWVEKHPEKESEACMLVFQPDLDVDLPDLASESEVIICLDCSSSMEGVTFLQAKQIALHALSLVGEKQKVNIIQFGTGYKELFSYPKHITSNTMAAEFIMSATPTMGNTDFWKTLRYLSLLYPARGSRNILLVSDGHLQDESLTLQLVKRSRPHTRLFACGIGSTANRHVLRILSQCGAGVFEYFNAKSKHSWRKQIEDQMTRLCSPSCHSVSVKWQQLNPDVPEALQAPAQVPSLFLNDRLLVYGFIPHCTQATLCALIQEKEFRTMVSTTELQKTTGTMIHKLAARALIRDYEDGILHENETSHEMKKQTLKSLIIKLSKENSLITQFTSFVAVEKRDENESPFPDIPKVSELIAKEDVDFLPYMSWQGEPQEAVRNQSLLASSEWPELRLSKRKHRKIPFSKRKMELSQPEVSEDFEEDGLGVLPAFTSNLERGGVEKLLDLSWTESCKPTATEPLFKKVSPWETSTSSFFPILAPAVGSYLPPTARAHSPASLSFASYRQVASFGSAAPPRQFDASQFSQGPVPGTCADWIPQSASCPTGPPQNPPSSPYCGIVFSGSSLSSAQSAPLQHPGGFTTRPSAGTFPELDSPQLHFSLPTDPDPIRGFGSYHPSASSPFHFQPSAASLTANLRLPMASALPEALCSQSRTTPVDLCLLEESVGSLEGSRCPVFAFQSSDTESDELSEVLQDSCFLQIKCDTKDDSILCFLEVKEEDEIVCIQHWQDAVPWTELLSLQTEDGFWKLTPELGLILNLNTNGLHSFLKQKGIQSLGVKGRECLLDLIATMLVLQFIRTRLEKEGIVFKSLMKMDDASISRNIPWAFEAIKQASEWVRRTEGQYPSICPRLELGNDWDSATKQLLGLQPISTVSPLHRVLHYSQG

Data set [1] addresses Protein mono-ADP-ribosyltransferase PARP14 (Homo sapiens, UniProt Q460N5).
Data set [2] addresses T1, Protein mono-ADP-ribosyltransferase PARP15 (Homo sapiens, UniProt Q460N3).
T1 sequence (Q460N3 whole entry): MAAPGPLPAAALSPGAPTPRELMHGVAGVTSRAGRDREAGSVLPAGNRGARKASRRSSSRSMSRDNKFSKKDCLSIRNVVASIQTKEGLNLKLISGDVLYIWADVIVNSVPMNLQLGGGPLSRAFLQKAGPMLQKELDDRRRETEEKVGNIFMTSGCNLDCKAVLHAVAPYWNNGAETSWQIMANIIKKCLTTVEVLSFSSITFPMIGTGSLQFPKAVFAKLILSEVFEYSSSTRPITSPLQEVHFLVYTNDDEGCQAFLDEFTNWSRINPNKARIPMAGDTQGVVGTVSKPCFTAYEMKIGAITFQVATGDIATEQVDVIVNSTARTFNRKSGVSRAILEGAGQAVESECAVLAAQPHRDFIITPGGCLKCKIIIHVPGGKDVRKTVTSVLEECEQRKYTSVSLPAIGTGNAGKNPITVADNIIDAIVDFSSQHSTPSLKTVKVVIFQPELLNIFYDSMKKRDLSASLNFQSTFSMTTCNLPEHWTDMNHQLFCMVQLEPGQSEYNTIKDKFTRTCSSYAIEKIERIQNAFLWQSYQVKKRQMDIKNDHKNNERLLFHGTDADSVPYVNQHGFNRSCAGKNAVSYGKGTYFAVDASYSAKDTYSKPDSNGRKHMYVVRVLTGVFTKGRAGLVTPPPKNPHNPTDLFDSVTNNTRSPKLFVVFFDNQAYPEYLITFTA

The target of data set [3] is Poly [ADP-ribose] polymerase 2 (Homo sapiens, UniProt Q9UGN5). In words: Inhibition of ARTD2 (unknown origin) measured after 30 mins in presence of NAD+ by fluorescence assay.
Data set [4] deals with Cytochrome P450 3A4 (Homo sapiens, UniProt P08684).
The target of data set [5] is Poly [ADP-ribose] polymerase 1 (Homo sapiens, UniProt P09874). Briefly: Inhibition of ARTD1 (unknown origin) measured after 30 mins in presence of NAD+ by fluorescence assay.
The target in data set [6] is T2, Protein mono-ADP-ribosyltransferase PARP10 (Homo sapiens, UniProt Q53GL7).
T2 sequence (Q53GL7 whole entry): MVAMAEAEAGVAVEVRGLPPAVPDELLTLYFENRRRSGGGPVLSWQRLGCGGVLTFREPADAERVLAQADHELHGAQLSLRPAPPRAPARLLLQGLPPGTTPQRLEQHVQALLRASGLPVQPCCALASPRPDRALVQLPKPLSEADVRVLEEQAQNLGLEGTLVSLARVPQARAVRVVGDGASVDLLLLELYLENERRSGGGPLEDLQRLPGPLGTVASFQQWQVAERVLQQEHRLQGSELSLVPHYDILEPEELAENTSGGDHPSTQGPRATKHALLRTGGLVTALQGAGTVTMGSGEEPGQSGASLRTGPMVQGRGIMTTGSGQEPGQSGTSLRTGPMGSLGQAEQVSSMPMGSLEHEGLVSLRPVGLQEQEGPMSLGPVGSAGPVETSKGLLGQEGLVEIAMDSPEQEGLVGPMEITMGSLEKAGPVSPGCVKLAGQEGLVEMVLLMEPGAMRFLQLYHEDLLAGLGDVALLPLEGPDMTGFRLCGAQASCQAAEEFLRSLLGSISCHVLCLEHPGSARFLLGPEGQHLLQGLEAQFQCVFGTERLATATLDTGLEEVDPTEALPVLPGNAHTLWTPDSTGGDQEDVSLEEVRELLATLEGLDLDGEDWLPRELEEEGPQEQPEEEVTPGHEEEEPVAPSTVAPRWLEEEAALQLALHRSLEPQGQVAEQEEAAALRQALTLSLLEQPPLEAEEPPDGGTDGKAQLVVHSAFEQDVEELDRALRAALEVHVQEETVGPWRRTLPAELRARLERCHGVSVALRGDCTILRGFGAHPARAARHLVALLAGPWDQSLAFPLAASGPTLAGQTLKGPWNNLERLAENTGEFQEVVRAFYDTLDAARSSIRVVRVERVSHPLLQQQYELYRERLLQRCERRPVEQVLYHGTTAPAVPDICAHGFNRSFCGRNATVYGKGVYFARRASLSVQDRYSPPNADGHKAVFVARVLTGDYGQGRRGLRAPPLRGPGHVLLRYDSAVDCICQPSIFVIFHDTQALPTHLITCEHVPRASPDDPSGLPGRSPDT

A short description of data set [7]: Half life in ICR mouse at 5 mg/kg, po by LC-MS/MS analysis. Format: ADME, organism-based. To be noted: in vivo.
In data set [8] the target is Protein mono-ADP-ribosyltransferase PARP4 (Homo sapiens, UniProt Q9UKK3).
Data set [9] has as its target T3, Protein mono-ADP-ribosyltransferase PARP12 (Homo sapiens, UniProt Q9H0J9).
T3 sequence (Q9H0J9 whole entry): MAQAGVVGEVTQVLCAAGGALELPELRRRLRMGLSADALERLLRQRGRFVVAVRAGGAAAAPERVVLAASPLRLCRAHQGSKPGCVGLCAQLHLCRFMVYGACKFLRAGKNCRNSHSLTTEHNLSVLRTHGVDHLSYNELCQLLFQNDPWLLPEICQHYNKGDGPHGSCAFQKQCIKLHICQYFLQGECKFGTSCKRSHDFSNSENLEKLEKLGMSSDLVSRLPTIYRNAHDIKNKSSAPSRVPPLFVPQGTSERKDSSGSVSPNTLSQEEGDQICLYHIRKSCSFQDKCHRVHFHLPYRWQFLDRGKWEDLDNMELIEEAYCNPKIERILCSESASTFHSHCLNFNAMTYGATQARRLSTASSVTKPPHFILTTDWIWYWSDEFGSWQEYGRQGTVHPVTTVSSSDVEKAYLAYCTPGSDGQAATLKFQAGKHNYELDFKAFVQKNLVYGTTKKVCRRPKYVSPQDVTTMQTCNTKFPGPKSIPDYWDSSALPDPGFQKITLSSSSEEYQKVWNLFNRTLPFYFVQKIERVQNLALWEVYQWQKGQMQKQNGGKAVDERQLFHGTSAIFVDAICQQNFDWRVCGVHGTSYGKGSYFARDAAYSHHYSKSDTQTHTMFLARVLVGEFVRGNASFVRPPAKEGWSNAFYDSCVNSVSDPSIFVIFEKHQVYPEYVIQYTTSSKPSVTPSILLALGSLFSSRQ

A value given as a limit tells only on which side of the number the result lay.

One may read the IC50 as the concentration that gives 50% inhibition. With `CCOc1ccc(-c2nnc([C@H]3C[C@H](NC(=O)c4ccccn4)C3)n2-c2ccccc2F)nc1`, the IC50 in data set [1] is above 10 µM; in data set [2], above 10 µM; in data set [3] it was above 10 µM; in [4] it was above 25 µM; in data set [5], above 10 µM; in [6] it was above 10 µM. The IC50 in [8] and in data set [9] was above 10 µM each time. The t1/2 in data set [7] worked out at 40.2 min.
